From article PMC2994877, “A Full Pharmacological Analysis of the Three Turkey β-Adrenoceptors and Comparison with the Human β-Adrenoceptors” (PLoS ONE, 2010)

The chains behind the UniProt entries cited, without tags or fusion partners.
UniProt A0A803YLI8, entry or part of it: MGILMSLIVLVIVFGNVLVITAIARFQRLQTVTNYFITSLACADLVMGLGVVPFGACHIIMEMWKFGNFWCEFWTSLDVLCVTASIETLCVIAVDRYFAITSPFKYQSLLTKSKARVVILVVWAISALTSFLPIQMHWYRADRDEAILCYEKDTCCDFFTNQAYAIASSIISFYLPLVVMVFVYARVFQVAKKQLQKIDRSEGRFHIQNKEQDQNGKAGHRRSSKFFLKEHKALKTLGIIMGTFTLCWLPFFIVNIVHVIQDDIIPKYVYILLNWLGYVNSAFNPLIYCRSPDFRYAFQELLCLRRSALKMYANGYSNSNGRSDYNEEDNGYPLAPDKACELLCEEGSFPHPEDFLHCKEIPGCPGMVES

Biological target: turkey β3C-adrenoceptor (tβ3C) (Meleagris gallopavo, UniProt A0A803YLI8)
Assay: 3H-CGP12177 whole cell binding, CHO tβ3C cells

COc1ccccc1OCCNCC(O)COc1cccc2[nH]c3ccccc3c12 (stereo not shown) [Carvedilol]
Kd: 0.263 nM
